We go through one molecule from publication PMC3159548 (Biochemical pharmacology, 2011).

Sequences of proteins named here, by UniProt entry; tags and fusion partners are left off.
UniProt P10632, whole entry: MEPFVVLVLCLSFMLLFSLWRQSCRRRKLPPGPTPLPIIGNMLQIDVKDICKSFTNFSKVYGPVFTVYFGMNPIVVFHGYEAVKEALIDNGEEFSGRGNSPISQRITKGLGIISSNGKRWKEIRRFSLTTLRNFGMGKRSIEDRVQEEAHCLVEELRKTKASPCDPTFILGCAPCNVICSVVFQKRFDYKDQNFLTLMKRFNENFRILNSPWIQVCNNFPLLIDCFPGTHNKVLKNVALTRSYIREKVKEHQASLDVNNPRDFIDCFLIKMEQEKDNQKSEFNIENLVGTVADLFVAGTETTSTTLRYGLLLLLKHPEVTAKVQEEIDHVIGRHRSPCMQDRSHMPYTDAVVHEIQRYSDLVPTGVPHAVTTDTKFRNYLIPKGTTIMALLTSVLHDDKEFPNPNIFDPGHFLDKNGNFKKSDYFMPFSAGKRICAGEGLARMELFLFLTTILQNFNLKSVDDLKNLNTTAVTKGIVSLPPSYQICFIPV
UniProt P10632, whole entry R139K/K399R: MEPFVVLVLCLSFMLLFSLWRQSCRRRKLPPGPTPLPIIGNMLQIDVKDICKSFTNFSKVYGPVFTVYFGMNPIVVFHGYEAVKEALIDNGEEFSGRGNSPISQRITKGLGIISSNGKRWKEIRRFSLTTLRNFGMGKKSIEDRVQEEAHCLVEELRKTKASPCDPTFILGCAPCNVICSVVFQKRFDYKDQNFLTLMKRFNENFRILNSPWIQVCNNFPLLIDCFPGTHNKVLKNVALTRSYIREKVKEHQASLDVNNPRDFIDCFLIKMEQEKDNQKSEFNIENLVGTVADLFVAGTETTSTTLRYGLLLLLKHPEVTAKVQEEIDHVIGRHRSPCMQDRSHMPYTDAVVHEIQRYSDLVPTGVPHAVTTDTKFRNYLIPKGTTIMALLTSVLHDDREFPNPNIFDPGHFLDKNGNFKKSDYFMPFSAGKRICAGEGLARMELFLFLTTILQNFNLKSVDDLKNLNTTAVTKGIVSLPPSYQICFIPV

The target of series [1] is CYP2C8.1 (Homo sapiens, UniProt P10632). The settings on record: for kcat: 1:2:1.
For series [2], the target named is T1, CYP2C8.3 (Homo sapiens, UniProt P10632, K399R/R139K). The following applies: for kcat: 1:2:1.
Series [3] deals with T1, CYP2C8.3. The settings on record: absence of cytochrome b5 in the reconstitution system; CPR:CYP2C8 2:1.
For series [4], the system named is CYP2C8. The settings on record: excess of cytochrome b5 (up to 10:1).
For series [5], the target named is T1, CYP2C8.3. Put plainly: Equilibrium spectral binding of ligands and redox cofactors to purified CYP2C8.3. The following applies: CYP2C8.3 in comparison to CYP2C8.1.

Like-named read-outs stand apart in the source and are kept apart here.

As to `CN(CCOc1ccc(CC2SC(=O)NC2=O)cc1)c1ccccn1` (stereo not shown) [RG, rosiglitazone], the substrate inhibition entry in series [1] (CYP2C8.1) is reported as “negligible”. Also, the kcat in series [1] (RG N-de-methylation) was 0.38 ± 0.02 nmol nmol P450^−1 min^−1; in series [1] (RG p-hydroxylation), 0.42 ± 0.03 nmol nmol P450^−1 min^−1; in series [2] (RG N-de-methylation), 2.7 ± 0.1 (***) nmol nmol P450^−1 min^−1; in series [2] (RG p-hydroxylation), 3.0 ± 0.1 (***) nmol nmol P450^−1 min^−1. Also, the “fold higher Clint (kcat/Km) for CYP2C8.3 compared to CYP2C8.1” value in series [2] (DEAQ formation, p-hydroxy and N-de-methyl RG, PAC 6α-hydroxylation) was “up to 3 fold”. For the same molecule, the “activity of CYP2C8.3 compared to CYP2C8.1” value in series [3] is given as “less active”. In series [4], the “inhibition of CYP-activity by cytochrome b5” value is given as “strong inhibition”. For the same molecule, the “% change in Bmax, first binding event” value in series [5] was “+5%”. Further, the “% change in Bmax, second binding event” value in series [5] is given as “+258%”.
